This note sets out measurements from paper PMC6879491 (Nature Communications, 2019).

In one experiment the target is T1, VHαCD3-GpL (mouse, de-immunized).
T1 construct: isolated VH domain of the anti-CD3ε antibody diL2K; as the anti-CD3 VH of m2 (GenBank MN432904); also called VHCD3 fused to GpL; luciferase-tagged anti-CD3 VH variable domain; source: Hek293, electroporated, secreted, in supernatant
Put plainly: cell-bound Gaussia luciferase activity (equilibrium binding on intact cells); Jurkat (CD3, CD45) or U266 (HLA-A2) cells, 1 h at 37 °C with increasing concentrations of GpL fusion proteins, washed five times with ice-cold PBS; specific binding = total minus non-specific. The settings on record: partners not purified.

The target in the next experiment is T2, VLαCD3-GpL (mouse, de-immunized).
T2 construct: isolated VL domain of the anti-CD3ε antibody diL2K; as the anti-CD3 VL of m1 (GenBank MN432902); also called VLCD3 fused to GpL; luciferase-tagged anti-CD3 VL variable domain; source: Hek293, electroporated, secreted, in supernatant
The description is as above. Particulars: partners not purified.

B1: CD3 on Jurkat cells (receptor, human (endogenous in Jurkat), UniProt P07766 23-207, looked up)
chain: DGNEEMGGITQTPYKVSISGTTVILTCPQYPGSEILWQHNDKNIGGDEDDKNIGSDEDHLSLKEFSELEQSGYYVCYPRGSKPEDANFYLYLRARVCENCMEMDVMSVATIVIVDICITGGLLLLVYYWSKNRKAKAKPVTRGAGAGGRQRGQNKERPPPVPNPDYEPIRKGQRDLYSGLNQRRI
notes: CD3ε, the chain addressed by the diL2K scFv, on the surface of CD3-positive cells; On cells CD3ε stands within the TCR-CD3 complex; also called CD3ε; CD3 antigen; source: on donor T cells (functional assays)
In the case of B1, the binding result with VHαCD3-GpL and in the experiment with VLαCD3-GpL was “no binding” throughout.
